# Experimental data from article PMC8972196, “A Set of Experimentally Validated Decoys for the Human CC Chemokine Receptor 7 (CCR7) Obtained by Virtual Screening” (Frontiers in Pharmacology, 2022).
# Molecular target: T1, human CCR7 (Homo sapiens, UniProt P32248)
# T1 construct: expressed in transfected cells
# T1 sequence (P32248 25-378): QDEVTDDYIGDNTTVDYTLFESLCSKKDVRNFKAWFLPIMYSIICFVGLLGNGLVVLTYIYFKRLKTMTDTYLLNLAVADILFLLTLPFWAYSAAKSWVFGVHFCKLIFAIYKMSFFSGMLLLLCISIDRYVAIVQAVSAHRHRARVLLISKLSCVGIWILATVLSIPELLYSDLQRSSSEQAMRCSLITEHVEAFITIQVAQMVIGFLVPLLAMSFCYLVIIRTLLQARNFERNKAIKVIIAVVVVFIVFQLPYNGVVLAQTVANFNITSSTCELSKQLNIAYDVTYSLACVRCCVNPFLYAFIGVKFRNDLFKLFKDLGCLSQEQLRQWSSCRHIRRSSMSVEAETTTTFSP
# Assay: CCL19-induced calcium mobilization assay, U87.CD4 cells expressing CCR7
# Assay type: cell-based
# Conditions: inhibition of CCL19 induced intracellular calcium flux; Mean ± SD of at least three independent experiments
# Method: U87.CD4 cells that stably express either human CCR7, CXCR2, CCR5 or CXCR4 were seeded (20,000 cells/well) in gelatin-coated black-walled polystyrene 96-well plates with clear bottom and incubated overnight at 37°C and 5% CO2. […] Culture medium was removed, and cells were incubated for 45 min at room temperature in the dark. […] Exactly the same protocol was used to record calcium responses in Chinese hamster ovary (CHO)-K1 cells, upon stimulation with adenosine triphosphate (ATP, purchased from Sigma).
substance,measurement,value
Maraviroc [reference compound],pIC50,< 4.30

# pIC50: −log10 of the molar value.
